Results reported in patent US11661431B2, “Thienopyrrole compounds” (Gilead Sciences, Inc., priority 2021, dated 2023).
Like-named read-outs stand apart in the source and are kept apart here.

Sequences of proteins named here, by UniProt entry; tags and fusion partners are left off. Residues count along the entry.
UniProt Q9NYK1, 27-1049 limits assumed: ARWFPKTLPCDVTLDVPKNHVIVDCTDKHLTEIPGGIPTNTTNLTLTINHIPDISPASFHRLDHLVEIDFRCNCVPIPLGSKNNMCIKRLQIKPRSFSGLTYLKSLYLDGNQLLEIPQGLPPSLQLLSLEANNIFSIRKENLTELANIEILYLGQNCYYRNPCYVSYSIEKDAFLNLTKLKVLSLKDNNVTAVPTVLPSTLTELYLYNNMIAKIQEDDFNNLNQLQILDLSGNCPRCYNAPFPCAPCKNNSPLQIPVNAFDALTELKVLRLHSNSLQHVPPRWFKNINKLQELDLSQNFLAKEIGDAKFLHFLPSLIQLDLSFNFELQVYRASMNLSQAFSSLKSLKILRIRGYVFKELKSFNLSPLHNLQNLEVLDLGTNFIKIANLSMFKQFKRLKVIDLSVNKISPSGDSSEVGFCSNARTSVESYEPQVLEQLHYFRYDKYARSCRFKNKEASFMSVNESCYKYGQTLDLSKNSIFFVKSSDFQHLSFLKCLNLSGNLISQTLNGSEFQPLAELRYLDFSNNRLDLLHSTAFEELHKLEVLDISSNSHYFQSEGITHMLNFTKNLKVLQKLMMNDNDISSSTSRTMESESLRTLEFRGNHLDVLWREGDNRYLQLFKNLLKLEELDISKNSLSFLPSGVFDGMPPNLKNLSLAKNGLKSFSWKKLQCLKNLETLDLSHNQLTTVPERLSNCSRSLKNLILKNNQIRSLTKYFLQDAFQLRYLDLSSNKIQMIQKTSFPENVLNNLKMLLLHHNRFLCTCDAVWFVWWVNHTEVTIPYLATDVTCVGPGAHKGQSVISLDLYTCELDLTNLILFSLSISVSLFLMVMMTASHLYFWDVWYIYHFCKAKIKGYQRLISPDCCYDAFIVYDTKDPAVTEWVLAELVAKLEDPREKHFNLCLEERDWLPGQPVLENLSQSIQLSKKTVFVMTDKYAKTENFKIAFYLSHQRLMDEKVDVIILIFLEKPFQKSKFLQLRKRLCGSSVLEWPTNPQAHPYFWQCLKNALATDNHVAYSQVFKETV
UniProt Q9NR97, 27-1041 limits assumed: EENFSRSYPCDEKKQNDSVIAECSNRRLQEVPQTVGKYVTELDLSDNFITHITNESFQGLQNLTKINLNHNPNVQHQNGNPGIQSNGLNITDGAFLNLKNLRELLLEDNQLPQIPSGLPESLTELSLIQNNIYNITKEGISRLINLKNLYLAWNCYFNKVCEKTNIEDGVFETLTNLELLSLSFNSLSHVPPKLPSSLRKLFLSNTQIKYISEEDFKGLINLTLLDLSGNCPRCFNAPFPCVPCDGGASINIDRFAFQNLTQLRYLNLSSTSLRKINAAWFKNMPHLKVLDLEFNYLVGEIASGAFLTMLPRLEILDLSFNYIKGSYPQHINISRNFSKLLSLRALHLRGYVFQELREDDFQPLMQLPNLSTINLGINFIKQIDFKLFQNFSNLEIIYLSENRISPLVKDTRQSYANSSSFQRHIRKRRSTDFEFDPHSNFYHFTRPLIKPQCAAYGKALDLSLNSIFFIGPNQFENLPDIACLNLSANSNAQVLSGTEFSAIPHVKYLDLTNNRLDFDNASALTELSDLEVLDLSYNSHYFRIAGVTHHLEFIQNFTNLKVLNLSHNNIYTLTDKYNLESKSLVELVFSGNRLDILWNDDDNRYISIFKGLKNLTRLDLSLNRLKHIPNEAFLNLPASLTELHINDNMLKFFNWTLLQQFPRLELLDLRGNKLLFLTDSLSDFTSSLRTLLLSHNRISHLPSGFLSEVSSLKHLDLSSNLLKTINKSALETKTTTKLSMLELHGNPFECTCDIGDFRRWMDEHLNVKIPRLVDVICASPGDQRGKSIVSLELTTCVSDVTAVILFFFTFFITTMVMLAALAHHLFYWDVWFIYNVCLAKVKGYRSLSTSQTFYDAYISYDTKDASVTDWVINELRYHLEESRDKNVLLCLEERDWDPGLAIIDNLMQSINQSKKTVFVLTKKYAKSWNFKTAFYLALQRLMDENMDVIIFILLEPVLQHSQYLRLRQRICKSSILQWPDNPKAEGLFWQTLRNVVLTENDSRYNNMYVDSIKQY

What was measured:
TLR7 = TLR7 (Homo sapiens (Human), UniProt Q9NYK1); assay: TLR7 human peripheral blood mononuclear cell (PBMC) cell-based assay (GS-986 as agonist; IL-6 and IFNα readout); conditions: read-out: TLR-7 EC50, human PBMCs, TLR7 agonist GS-986 at 400 nM, 6 hours, antagonist potency
TLR8 = TLR8 (Homo sapiens (Human), UniProt Q9NR97); assay: TLR8 human peripheral blood mononuclear cell (PBMC) cell-based assay (Compound A as agonist; TNFα and IL12p40 readout); conditions: read-out: TLR-8 EC50, human PBMCs, TLR8 agonist Compound A at 800 nM, 6 hours, antagonist potency

EC50 (TLR7; tested form: TFA) | EC50 (TLR8; tested form: TFA) | Compound | EC50 (TLR7) | EC50 (TLR8)
 |  | Cc1cc(-c2[nH]c3sc(C4CCNCC4)c(C(F)F)c3c2C(C)C)cn2ncnc12 | 1.57 nM | 5.56 nM
 |  | Cc1c(C2CCN(CC(N)=O)CC2)sc2[nH]c(-c3ccc(C#N)c4nccnc34)c(C(C)C)c12 | 41.9 nM | 83.4 nM
0.94 nM | 24.3 nM | Cc1cc(-c2[nH]c3sc(C4CCN(C(=O)[C@@H]5COCCN5)CC4)c(CO)c3c2C(C)C)cn2ncnc12 |  | 
